# Measured affinities in a library of Ab-14 heavy chain variants

From the AlphaSeq antibody data of Li et al. 2023 (doi:10.1038/s41467-023-39022-2), copy in the FLAb collection.

Target peptide (SARS-CoV-2 spike, HR2 region): PDVDLGDISGINAS

Ab-14 is the parent antibody, in scFv form: VH, then the linker GGGGSGGGGSGGGGS, then VL. The light chain is unchanged in all variants.
VH: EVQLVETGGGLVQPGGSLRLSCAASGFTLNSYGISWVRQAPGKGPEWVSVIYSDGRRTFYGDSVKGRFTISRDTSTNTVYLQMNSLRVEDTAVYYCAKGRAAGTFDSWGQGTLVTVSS
VL: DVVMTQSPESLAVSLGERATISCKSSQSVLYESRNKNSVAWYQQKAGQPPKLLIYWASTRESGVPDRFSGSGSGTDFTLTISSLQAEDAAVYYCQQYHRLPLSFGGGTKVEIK

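The starting antibody came from a phage panning campaign against this peptide. The variants were designed computationally from a first round of random CDR variants and then made and measured. Several design methods are mixed in this list. The scFvs were displayed on barcoded MATa yeast, the peptide on MATalpha yeast. Binding brings cells together so that they mate, and sequencing counts the barcode pairs among the diploids. A regression on co-assayed BCL2-family reference pairs converts the normalised counts of each replicate to an apparent Kd. There are six technical replicates.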

Sequences are complete VH domains.
Variants here have at most six changes.
Values are apparent Kd, the geometric mean of the replicates that gave a signal; lower means stronger binding.
"no signal" marks a missing value. The strain was present, yet no cells mated with the target were sequenced in any replicate, which points to weak or no binding.
In the paper, a design with two or fewer of six values counts as a poor binder.
The range of this assay differs from that of the first round, and the authors advise against merging the two.
Empty control strains, which show no peptide, gave a signal in 1% of pairings with all heavy chain designs; the median was 120 nM and 95% of these signals were weaker than 7.0 nM. No background was subtracted.

* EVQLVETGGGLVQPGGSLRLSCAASGFELNSYGISWVRQAPGKGPEWVSVIYSDGRRTFYQDSVKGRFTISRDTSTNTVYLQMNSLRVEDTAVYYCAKGEAAGTFDTWGQGTLVTVSS -> 8.5 nM (6 of 6 replicates)
* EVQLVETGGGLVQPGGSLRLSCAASGFQLNDYGISWVRQAPGKGPEWVSVIYSDGRRTFYGDSVKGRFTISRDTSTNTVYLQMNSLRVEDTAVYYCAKGREAGTFDTWGQGTLVTVSS -> 900 pM (6 of 6 replicates)
* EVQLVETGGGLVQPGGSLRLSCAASGYTLESYGISWVRQAPGKGPEWVSVIYADGRRTFYGDSVKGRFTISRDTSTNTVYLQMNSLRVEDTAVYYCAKGRAAGTFDSWGQGTLVTVSS -> 8.9 nM (6 of 6 replicates)
* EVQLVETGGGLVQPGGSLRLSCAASGFTLKSYGISWVRQAPGKGPEWVSVIYSDGRRTFYKDSVKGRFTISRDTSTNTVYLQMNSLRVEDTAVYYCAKGKLAGTFDSWGQGTLVTVSS -> no signal (0 of 6 replicates)
* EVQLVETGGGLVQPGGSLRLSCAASGFTLNSYGISWVRQAPGKGPEWVSVIYSDGRRTFMGDSVKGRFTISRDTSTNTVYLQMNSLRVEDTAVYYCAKGRAAGTFDQWGQGTLVTVSS -> 25 nM (1 of 6 replicates)
* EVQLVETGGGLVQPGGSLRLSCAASGFTLNSYGISWVRQAPGKGPEWVSVIYSDGRRTFYADSVKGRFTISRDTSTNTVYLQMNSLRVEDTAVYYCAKGWVAGTFDSWGQGTLVTVSS -> 5.5 nM (6 of 6 replicates)
* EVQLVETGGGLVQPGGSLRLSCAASGFSLNSYGISWVRQAPGKGPEWVSVIYSDGRRTFYKDSVKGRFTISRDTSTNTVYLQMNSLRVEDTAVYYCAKGRTAGTFDTWGQGTLVTVSS -> 2.3 nM (6 of 6 replicates)
* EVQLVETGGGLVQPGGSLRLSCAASGFSLNSYGISWVRQAPGKGPEWVSVIYSDGRRTFYSDSVKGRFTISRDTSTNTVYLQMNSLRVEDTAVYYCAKGMAGGTFDSWGQGTLVTVSS -> 34 nM (4 of 6 replicates)
* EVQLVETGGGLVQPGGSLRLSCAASGFTLNDYGISWVRQAPGKGPEWVSVIYSAGRRTFYGDSVKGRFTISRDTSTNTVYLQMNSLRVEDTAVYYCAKGRAALTFISWGQGTLVTVSS -> no signal (0 of 6 replicates)
* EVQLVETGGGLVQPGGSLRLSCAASGFCLNSYGISWVRQAPGKGPEWVSVIYSDGRRTFYQDSVKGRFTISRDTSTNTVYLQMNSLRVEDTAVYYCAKGSAAGTFDSWGQGTLVTVSS -> no signal (0 of 6 replicates)
* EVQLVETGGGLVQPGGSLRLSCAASGFTLNEYGISWVRQAPGKGPEWVSVIYSDGRRTFYADSVKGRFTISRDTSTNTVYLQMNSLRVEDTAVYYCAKGRFAGTFDRWGQGTLVTVSS -> no signal (0 of 6 replicates)
* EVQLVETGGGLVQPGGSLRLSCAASGFTLNSYGISWVRQAPGKGPEWVSVIYSDGRRTEYGDSVKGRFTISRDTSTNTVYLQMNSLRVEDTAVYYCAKGRAAGTFDSWGQGTLVTVSS -> 45 nM (6 of 6 replicates)
* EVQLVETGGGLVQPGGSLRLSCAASGITLNSYGISWVRQAPGKGPEWVSVIYSDGRRTFYGDSVKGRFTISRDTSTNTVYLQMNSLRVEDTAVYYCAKGRAAGGFDSWGQGTLVTVSS -> no signal (0 of 6 replicates)
* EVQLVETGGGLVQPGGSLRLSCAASGFDLNSYGISWVRQAPGKGPEWVSVIYSDGRRTFYGDNVKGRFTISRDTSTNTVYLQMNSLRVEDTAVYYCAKGQAAGTFDSWGQGTLVTVSS -> 3.5 nM (6 of 6 replicates)
* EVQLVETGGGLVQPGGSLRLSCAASGFRLNEYGISWVRQAPGKGPEWVSVIYADGRRTFYGDSVKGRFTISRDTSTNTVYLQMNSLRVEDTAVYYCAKGRQMGTFDSWGQGTLVTVSS -> no signal (0 of 6 replicates)
* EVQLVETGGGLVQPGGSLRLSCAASGFTLNSYGISWVRQAPGKGPEWVSVIYSDGIRTFYGDSVKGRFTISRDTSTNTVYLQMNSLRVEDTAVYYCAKGRAAGTFDSWGQGTLVTVSS -> 59 nM (2 of 6 replicates)
* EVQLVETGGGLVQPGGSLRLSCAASGFTLESYGISWVRQAPGKGPEWVSVIYSDGRRTFYADSVKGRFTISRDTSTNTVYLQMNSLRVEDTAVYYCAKGRAAGTFTSWGQGTLVTVSS -> no signal (0 of 6 replicates)
* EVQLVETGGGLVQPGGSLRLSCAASGFQLNNYGISWVRQAPGKGPEWVSVIYSDGRRTFYSDSVKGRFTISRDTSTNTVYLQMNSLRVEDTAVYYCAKGEAAGTFDSWGQGTLVTVSS -> 6.7 nM (6 of 6 replicates)
* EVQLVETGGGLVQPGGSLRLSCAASGFQLNEYGISWVRQAPGKGPEWVSVIYSDGRRTFYTDSVKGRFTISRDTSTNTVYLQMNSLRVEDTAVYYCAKGEEAGTFDSWGQGTLVTVSS -> 11 nM (6 of 6 replicates)

Top 2 of the variants detected in all replicates, tightest first:

* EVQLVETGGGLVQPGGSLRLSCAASGFQLNDYGISWVRQAPGKGPEWVSVIYSDGRRTFYGDSVKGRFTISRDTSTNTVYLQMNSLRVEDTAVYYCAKGREAGTFDTWGQGTLVTVSS -> 900 pM (6 of 6 replicates)
* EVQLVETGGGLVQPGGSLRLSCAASGFSLNSYGISWVRQAPGKGPEWVSVIYSDGRRTFYKDSVKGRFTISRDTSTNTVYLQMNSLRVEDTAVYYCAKGRTAGTFDTWGQGTLVTVSS -> 2.3 nM (6 of 6 replicates)